This is an account of results in US9789089B2 (Gilead Sciences, Inc., priority 2013, dated 2017).

The CC50 is the concentration that lowers cell viability or growth by half. Higher therefore signals lower toxicity to the cells.

Each structure is given as a SMILES string.

This data set in a line: Test B: Cytotoxicity assay. Type of data set: cell-based. The conditions noted are these: human, uninfected MT-4 cells, same protocol as Test A, CellTiter-Glo. The procedure: For the antiviral assay, 40 μL of 1× test concentration of 3-fold serially diluted compound in culture medium with 10% FBS was added to each well of a 384-well plate (10 concentrations) in quadruplicate. MT-4 cells were next mixed with HIV-IIIb at an m.o.i of 0.003 for 1 hour, after which time 35 μL of virus/cell mixture (2000 cells) was immediately added to each well containing 40 μL of diluted compound. The plates were then incubated at 37° C. for 5 days. After 5 days of incubation, 25 μl of 2× concentrated CellTiter-Glo™ Reagent (catalog #G7571, Promega Biosciences, Inc., Madison, Wis.) was added to each well containing MT-4 cells. Cell lysis was carried out by incubating at room temperature for 10 min and then chemiluminescence was read.
Test B:Cytotoxicity assay
Compound cytotoxicity and the corresponding CC50 values was determined using the same protocol as described in the antiviral assay (Test A) except that uninfected cells were used.
For orientation: In ATP-based viability assays light output follows the ATP content of the culture.
On to `COc1ccc(-n2ccnc2[C@H](Cc2cc(F)cc(F)c2)NC(=O)Cc2c[nH]c3ccc(O)cc23)cc1` [Compound 7, (S)—N-(2-(3,5-difluorophenyl)-1-(1-(4-methoxyphenyl)-1H-imidazol-2-yl)ethyl)-2-(5-hydroxy-1H-indol-3-yl)acetamide], for which the CC50 at 5 days is over 47.1 µM.

Compound `COc1ccc(-n2ccnc2[C@@H](Cc2cc(F)cc(F)c2)NC(=O)Cc2c[nH]c3ccc(O)cc23)cc1` [Compound 8, (R)—N-(2-(3,5-difluorophenyl)-1-(1-(4-methoxyphenyl)-1H-imidazol-2-yl)ethyl)-2-(5-hydroxy-1H-indol-3-yl)acetamide] registered a 50% cytotoxic concentration (CC50) at 5 days of 44.3 µM.

The compound `Cc1ccccc1-c1scnc1C(Cc1cc(F)cc(F)c1)NC(=O)Cc1c[nH]c2ccc(O)cc12` (stereo not drawn) [Compound 13E, N-(2-(3,5-difluorophenyl)-1-(5-(o-tolyl)thiazol-4-yl)ethyl)-2-(5-hydroxy-1H-indol-3-yl)acetamide] showed a cytotoxic concentration (CC50) at 5 days of 25.4 µM.

`O=C(Cc1c[nH]c2ccc(O)cc12)N[C@@H](Cc1cc(F)cc(F)c1)c1nocc1-c1ccc(Cl)cc1` [Compound 26, (S)—N-(1-(4-(4-chlorophenyl)isoxazol-3-yl)-2-(3,5-difluorophenyl)ethyl)-2-(5-hydroxy-1H-indol-3-yl)acetamide] returned a CC50 at 5 days of 19.5 µM.

The compound `O=C(Cc1c[nH]c2ccc(O)cc12)N[C@H](Cc1cc(F)cc(F)c1)c1nocc1-c1ccc(Cl)cc1` [Compound 28B, (R)—N-(1-(4-(4-chlorophenyl)isoxazol-3-yl)-2-(3,5-difluorophenyl)ethyl)-2-(5-hydroxy-1H-indol-3-yl)acetamide] returned a CC50 at 5 days of 11.6 µM.

As to `Cn1cnc(C(Cc2cc(F)cc(F)c2)NC(=O)Cc2c[nH]c3ccc(O)cc23)c1-c1ccc(Cl)cc1` (stereo not drawn) [Compound 31, N-(1-(5-(4-chlorophenyl)-1-methyl-1H-imidazol-4-yl)-2-(3,5-difluorophenyl)ethyl)-2-(5-hydroxy-1H-indol-3-yl)acetamide], the CC50 at 5 days was 25.4 µM.
